pIC50: −log10 of the molar value. Like-named read-outs stand apart in the source and are kept apart here.
Target: T1, HLA‐A2 (Homo sapiens, UniProt P04439, D140Y/D185E/D98H/E176V/E277Q/G131W/G231S/I119V/I121R/I166T/I218V/L300P/L318F/N151K/N90K/P208A/P217A/Q86G/Q94H/R138H/R169H/T345S)
T1 construct: host or cells: BSM cells (HLA-A2+, HPV16-negative suspension cell line)
Experiment: In vitro competition-based cellular binding assay
Protocol: In Vitro Competition Based Binding Assays: In vitro competition‐based binding assays were performed as described in ref. 30. In brief, BSM cells were treated with citric acid buffer to strip off naturally presented peptides. Cells were incubated overnight at 4 °C with β2M, a constant concentration (150 nM) of fluorescein‐labeled HLA‐A2‐binding reference peptide (FLPSDC(Fl)FPSV), and six different concentrations (0.78 –100 μM) of the respective investigated non‐labeled peptide, competing for HLA‐binding. Fluorescence was measured by flow cytometry and data processed with FlowJo 10 (TreeStar, Ashland, OR, USA). A logistic four‐parametric non‐linear regression calculation using SigmaPlot 13 (Systat‐Software, San José, CA, USA) was conducted to calculate binding affinity (IC50). […] The assay was performed with at least three biological replicates for binders and two for non‐binders.

**Q.** With CSCC[C@H](NC(=O)[C@H](Cc1ccc(O)cc1)NC(=O)[C@H](CCC(=O)O)NC(=O)[C@H](Cc1cnc[nH]1)NC(=O)[C@H](CC(C)C)NC(=O)[C@@H](N)[C@@H](C)O)C(=O)N[C@@H](CC(C)C)C(=O)N[C@@H](CC(=O)O)C(=O)N[C@@H](CC(C)C)C(=O)O [E7_7–15] as the compound, how does the pIC50 read?
**A.** 5.57

**Q.** CSCC[C@H](NC(=O)[C@@H](N)Cc1ccc(O)cc1)C(=O)N[C@@H](CC(C)C)C(=O)N[C@@H](CC(=O)O)C(=O)N[C@@H](CC(C)C)C(=O)N[C@@H](CCC(N)=O)C(=O)N1CCC[C@H]1C(=O)N[C@@H](CCC(=O)O)C(=O)N[C@H](C(=O)N[C@H](C(=O)O)[C@@H](C)O)[C@@H](C)O [E7_11–20] was tested. Which IC50 (acid-stripped BSM cells, β2M, 150 nM fluorescein-labeled reference peptide FLPSDC(Fl)FPSV, test peptide 0.78–100 μM, overnight 4 °C, flow cytometry, mean of at least three experimental replicates, read-out: Experimental binding affinity [IC50(μM)]) did it give?
**A.** 2.19 µM
